Consider one substance from PMC7669867, “Synthesis and initial screening of lactate dehydrogenase inhibitor activity of 1,3-benzodioxole derivatives” (Scientific Reports, 2020).

Amino acid sequences for entries named in this document (tags omitted).
UniProt P07195, whole entry: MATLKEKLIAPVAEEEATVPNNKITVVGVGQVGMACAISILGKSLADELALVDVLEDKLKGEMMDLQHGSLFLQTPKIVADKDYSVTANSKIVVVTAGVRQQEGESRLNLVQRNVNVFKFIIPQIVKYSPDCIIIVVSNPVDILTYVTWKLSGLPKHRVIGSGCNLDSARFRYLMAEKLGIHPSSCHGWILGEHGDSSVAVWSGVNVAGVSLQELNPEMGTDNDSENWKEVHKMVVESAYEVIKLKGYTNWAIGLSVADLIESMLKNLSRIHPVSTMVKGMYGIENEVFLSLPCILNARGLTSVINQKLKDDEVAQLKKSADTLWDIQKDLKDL

The target in this test is T1, purified recombinant human LDHB protein (Homo sapiens, UniProt P07195).
T1 construct: purchased Abcam
The experiment in a line: In vitro LDHB activity assay (NAD+ converted to NADH). The following applies: standard compounds. It counts as biochemical.

For orientation: IC50 means the concentration that gives 50% inhibition. For the substance GNE140 [reference compound], the IC50 is 151 nM.
